For 9 compounds, inhibition and Activity results are on record in ChEMBL document CHEMBL5120744, “Dual acting oximes designed for therapeutic decontamination of reactive organophosphates via catalytic inactivation and acetylcholinesterase reactivation” (2021).

By UniProt entry, the sequences of proteins in these tests, tags left out. Where a name states a change or a piece, a line headed by the entry shows the natural chain unless it says otherwise.
UniProt P22303: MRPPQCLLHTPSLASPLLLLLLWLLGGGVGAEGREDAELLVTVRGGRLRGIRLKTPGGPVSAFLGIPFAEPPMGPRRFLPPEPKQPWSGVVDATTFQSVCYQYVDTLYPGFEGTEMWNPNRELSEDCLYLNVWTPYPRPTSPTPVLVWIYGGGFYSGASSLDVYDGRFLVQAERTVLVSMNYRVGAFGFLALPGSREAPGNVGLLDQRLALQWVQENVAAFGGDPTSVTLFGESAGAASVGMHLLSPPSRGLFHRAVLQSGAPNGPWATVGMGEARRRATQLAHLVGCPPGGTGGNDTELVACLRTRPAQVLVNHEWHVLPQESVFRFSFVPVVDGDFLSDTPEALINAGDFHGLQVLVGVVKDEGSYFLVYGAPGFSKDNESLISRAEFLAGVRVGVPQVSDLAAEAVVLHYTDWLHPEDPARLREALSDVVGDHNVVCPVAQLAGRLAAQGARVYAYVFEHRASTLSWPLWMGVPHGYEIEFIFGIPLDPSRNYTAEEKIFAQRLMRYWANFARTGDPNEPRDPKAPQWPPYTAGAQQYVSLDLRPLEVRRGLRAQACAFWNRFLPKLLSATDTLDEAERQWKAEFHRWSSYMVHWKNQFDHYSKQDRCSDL
UniProt O42275: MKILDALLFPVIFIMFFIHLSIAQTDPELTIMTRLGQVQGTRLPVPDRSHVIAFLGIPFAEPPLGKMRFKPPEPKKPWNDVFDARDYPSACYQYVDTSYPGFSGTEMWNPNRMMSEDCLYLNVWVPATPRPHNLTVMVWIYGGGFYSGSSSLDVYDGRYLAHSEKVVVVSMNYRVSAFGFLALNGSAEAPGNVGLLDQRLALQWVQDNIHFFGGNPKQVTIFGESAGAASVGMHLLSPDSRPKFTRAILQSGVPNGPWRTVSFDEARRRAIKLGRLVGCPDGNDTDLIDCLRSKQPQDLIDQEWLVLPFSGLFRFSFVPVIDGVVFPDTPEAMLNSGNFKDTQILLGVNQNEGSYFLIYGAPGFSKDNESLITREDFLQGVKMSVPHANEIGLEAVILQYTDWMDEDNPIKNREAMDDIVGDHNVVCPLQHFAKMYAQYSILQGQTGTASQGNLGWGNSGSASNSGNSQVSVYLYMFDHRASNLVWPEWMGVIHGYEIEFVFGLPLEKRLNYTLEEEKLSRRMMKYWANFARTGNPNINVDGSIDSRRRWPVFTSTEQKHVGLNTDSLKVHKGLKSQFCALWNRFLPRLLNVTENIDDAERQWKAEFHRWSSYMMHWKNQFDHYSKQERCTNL

SMILES strings stand for the structures. Active and inactive are the calls of the source. The rule behind the calls is not given here.

Assay [1] addresses Acetylcholinesterase (Homo sapiens) (UniProt P22303). The assay is described as follows: Effect on human recombinant AChE assessed as decrease in enzyme activity using ATC as substrate at 1 mM followed by substrate addition by Ellman's method based spectrophotometry. To be noted: filed as activator.
In assay [2] the test system is Zone of skin. The assay is described as follows: Increase in POX decontamination in porcine skin assessed as decrease POX half life by LC-MS analysis. The following applies: Sus scrofa; Skin of body.
Assay [3] deals with Zone of skin. The assay is described as follows: Increase in POX decontamination in porcine skin assessed as decrease POX skin penetration by LC-MS analysis. The following applies: Sus scrofa; Skin of body.
Assay [4] has as its target Acetylcholinesterase (Electrophorus electricus) (UniProt O42275). The assay is described as follows: Reactivation of POX-inhibited electric eel recombinant AChE assessed as reactivation rate constant using ATC as substrate followed by substrate addition by Ellman's method based spectrophotometry. To be noted: filed as activator.
The target in assay [5] is Acetylcholinesterase (Homo sapiens) (UniProt P22303). The assay is described as follows: Reactivation of CPS-inhibited human recombinant AChE assessed as reactivation rate constant using ATC as substrate at 1 mM followed by substrate addition by Ellman's method based spectrophotometry. More on the design: scale not given: the % may be the effect or the level left.
Assay [6] has the same target. The assay is described as follows: Reactivation of POX-inhibited human recombinant AChE assessed as reactivation rate constant using ATC as substrate at 1 mM followed by substrate addition by Ellman's method based spectrophotometry. Further details: scale not given: the % may be the effect or the level left. The following applies: filed as activator.
Assay [7] addresses Acetylcholinesterase (Electrophorus electricus) (UniProt O42275). The experiment in a line: Reactivation of POX-inhibited electric eel recombinant AChE assessed as reactivation rate constant using ATC as substrate at 1 mM followed by substrate addition by Ellman's method based spectrophotometry. More on the design: scale not given: the % may be the effect or the level left. The following applies: filed as activator.

Assay [8] shares this target. The experiment in a line: Reactivation of POX-inhibited electric eel recombinant AChE assessed as reactivation rate constant using ATC as substrate at 0.1 mM followed by substrate addition by Ellman's method based spectrophotometry. More on the design: scale not given: the % may be the effect or the level left.
For assay [9], the target named is Acetylcholinesterase (Homo sapiens) (UniProt P22303). The experiment in a line: Reactivation of CPS-inhibited human recombinant AChE assessed as reactivation rate constant using ATC as substrate at less than 0.1 mM followed by substrate addition by Ellman's method based spectrophotometry. Further details: scale not given: the % may be the effect or the level left.

The target in assay [10] is Acetylcholinesterase (Electrophorus electricus) (UniProt O42275). The experiment in a line: Reactivation of CPS-inhibited electric eel recombinant AChE assessed as reactivation rate constant using ATC as substrate at 0.1 to 1 mM followed by substrate addition by Ellman's method based spectrophotometry. To be noted: filed as activator, dose 0.1-1 mM.
The target is the same in assay [11]. The experiment in a line: Reactivation of MAL-inhibited electric eel recombinant AChE assessed as reactivation rate constant using ATC as substrate at 0.1 to 1 mM followed by substrate addition by Ellman's method based spectrophotometry. The following applies: filed as activator, dose 0.1-1 mM.
In assay [12] the target is Acetylcholinesterase (Homo sapiens) (UniProt P22303). The assay is described as follows: Reactivation of POX-inhibited human recombinant AChE assessed as reactivation rate constant using ATC as substrate at pH 8 and 37 degreeC followed by substrate addition by Ellman's method based spectrophotometry. The following applies: filed as activator.
For assay [13] the target is unchanged. The assay is described as follows: Reactivation of POX-inhibited human recombinant AChE assessed as reactivation rate constant using ATC as substrate at pH 8 and 17 degreeC followed by substrate addition by Ellman's method based spectrophotometry. The following applies: filed as activator.
Assay [14] has the same target. The assay is described as follows: Reactivation of POX-inhibited human recombinant AChE assessed as reactivation rate constant using ATC as substrate at pH 10.5 and 37 degreeC followed by substrate addition by Ellman's method based spectrophotometry. To be noted: filed as activator.
Assay [15] shares this target. The experiment in a line: Reactivation of POX-inhibited human recombinant AChE assessed as reactivation rate constant using ATC as substrate at pH 10.5 and 17 degreeC followed by substrate addition by Ellman's method based spectrophotometry. The following applies: filed as activator.
For assay [16] the target is unchanged. The assay is described as follows: Effect on human recombinant AChE assessed as increase in enzyme activity using ATC as substrate at 0.1 to 1 mM followed by substrate addition by Ellman's method based spectrophotometry. The following applies: dose 0.1-1 mM.
Assay [17] shares this target. The assay is described as follows: Reactivation of POX-inhibited human recombinant AChE assessed as reactivation rate constant using ATC as substrate at 0.5 mM followed by substrate addition by Ellman's method based spectrophotometry. The following applies: filed as activator.

Regarding `C[n+]1ccccc1C=NO`, the inhibition in assay [1] stood at 67%.
With `CCN(CC)CCNC(=O)/C=N/O`, the outcome (in the assay on Zone of skin [2]; with Zone of skin [3]; in assay [10]; in assay [11]; in [12]; in assay [13]) was Active. Also, the outcome in assay [14] and in [15] was Active. The Activity entry in [4] is “Dde”; in [5], 14%; in assay [6], 66%; in assay [7] it was 80%; in assay [8], 21%; in [9], 2%.
As for `CN(C)CCNC(=O)/C=N/O`, the figures for the Activity in [5], in [7] and in [9] were 14%, 80% and 2%, respectively. The outcome in assay [10] and in [11] was Active.
For `C[N+](C)(C)CCNC(=O)/C=N/O`, the Activity in assay [5] was 14%; in assay [7], 80%; in assay [8], 21%; in [9], 2%. Besides, the outcome in [10], in [11], in [12] and in assay [13] was Active.
For the compound `CN(C)CCCNC(=O)/C=N/O`, the outcome (with Zone of skin [2]; in the assay on Zone of skin [3]; in assay [10]; in [11]; in [14]; in assay [15]) was Active. Further, the Activity is 14% in [5]; 66% in assay [6]; 80% in [7]; 21% in assay [8]; 2% in [9].
On to `CC(=O)/C(C)=N/O`, for which the result in assay [14] and in assay [15] was Active.
Consider `NCCNC(=O)/C=N/O`, for which the Activity came out at 25% in assay [16], 14% in [5], 80% in assay [7] and 2% in assay [9]. Moreover, the outcome in [10] and in [11] was Active.
Take `O=C(/C=N/O)NCc1ncc[nH]1`: the Activity in [5] is 14%; in assay [7] it was 80%; in [8], 21%; in [9], 2%. Further, the result in assay [10], in assay [11], in [14] and in assay [15] was Active.
With `O=C(/C=N/O)NCCN1CCCC1`, the outcome (in the assay with Zone of skin [2]; in the assay with Zone of skin [3]; in [17]; in assay [10]; in assay [11]; in assay [14]) was Active. Moreover, the result in [15] was Active. The Activity result in assay [4] is “Dde”; in [5], 14%; in [6], 66%; in [7] it was 80%; in assay [8] it was 21%; in assay [9], 2%.
